Consider 20 compounds from patent US20110105389A1 (priority 2009, published 2011).

Chains of the proteins cited; added tags and fusions are not shown.
UniProt Q92847, whole entry: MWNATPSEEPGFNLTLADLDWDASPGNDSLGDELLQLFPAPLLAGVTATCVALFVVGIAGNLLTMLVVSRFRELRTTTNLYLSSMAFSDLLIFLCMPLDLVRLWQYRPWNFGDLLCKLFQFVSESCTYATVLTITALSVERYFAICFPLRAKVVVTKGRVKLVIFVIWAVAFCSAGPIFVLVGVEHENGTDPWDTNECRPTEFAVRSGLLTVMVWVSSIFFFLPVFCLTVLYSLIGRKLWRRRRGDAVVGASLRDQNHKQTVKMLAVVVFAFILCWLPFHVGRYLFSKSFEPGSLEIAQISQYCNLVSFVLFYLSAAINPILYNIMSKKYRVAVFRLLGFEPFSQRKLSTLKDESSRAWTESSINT
UniProt P08684, whole entry: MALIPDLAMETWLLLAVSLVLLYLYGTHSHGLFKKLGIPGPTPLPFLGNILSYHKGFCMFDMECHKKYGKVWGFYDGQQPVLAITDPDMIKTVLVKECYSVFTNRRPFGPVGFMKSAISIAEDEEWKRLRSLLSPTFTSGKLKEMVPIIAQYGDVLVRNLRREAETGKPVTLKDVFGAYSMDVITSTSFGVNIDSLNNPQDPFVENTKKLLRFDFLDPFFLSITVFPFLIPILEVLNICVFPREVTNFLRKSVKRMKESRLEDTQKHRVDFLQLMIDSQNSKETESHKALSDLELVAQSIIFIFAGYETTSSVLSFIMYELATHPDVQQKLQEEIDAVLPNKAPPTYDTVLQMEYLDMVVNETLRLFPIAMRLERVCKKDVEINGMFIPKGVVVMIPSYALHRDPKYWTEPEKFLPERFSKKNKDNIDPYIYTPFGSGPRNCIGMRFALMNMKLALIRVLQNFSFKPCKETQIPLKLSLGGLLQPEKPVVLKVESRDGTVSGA
UniProt P10635, whole entry: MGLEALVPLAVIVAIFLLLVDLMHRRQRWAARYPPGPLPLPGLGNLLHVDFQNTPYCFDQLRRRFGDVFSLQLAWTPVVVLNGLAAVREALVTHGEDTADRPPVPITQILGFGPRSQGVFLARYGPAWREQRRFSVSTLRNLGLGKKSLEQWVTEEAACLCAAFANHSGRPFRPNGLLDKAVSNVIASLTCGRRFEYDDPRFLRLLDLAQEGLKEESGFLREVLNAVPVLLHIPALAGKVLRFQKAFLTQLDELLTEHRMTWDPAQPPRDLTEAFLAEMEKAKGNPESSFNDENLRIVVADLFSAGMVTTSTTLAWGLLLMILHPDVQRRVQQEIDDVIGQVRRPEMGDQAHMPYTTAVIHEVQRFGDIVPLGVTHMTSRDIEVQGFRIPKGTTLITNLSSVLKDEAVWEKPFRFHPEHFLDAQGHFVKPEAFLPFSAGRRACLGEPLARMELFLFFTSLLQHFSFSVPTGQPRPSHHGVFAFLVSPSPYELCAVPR

The term IC50 denotes the concentration needed to halve the response being measured. Broadly, the Ki is the dissociation constant of the complex between target and ligand, obtained from inhibition or displacement.

The target in series [1] is human ghrelin receptor (GRLN, growth hormone secretagogue receptor, hGHS-R1a) (Homo sapiens, UniProt Q92847). Briefly: Competitive radioligand binding assay (ghrelin receptor), Method B1. To be noted: Ghrelin receptor binding activity.
Series [2] has as its target ghrelin receptor (HEK-GHSR1 stable cells) (Homo sapiens, UniProt Q92847). Description: Ghrelin receptor inverse agonist assay (HTRF IP-one), Method B4. The settings on record: read-out: IC50 (Inverse Agonist Activity), inverse agonist at the ghrelin receptor. On the technique in general: In TR-FRET formats the signal depends on donor and acceptor labels being close together.

In series [3] the target is GHS-R1a receptor (HEK293 cells expressing GHS-R1a receptor) (Homo sapiens, UniProt Q92847). Briefly: Fluorescence functional assay (ghrelin receptor), Method B2, agonist and antagonist mode. The settings on record: functional activity as an antagonist at the ghrelin receptor, Methods B2 and B3.
The target in series [4] is CYP3A4 (Homo sapiens, UniProt P08684). Description: Cytochrome P450 inhibition, Method B6 (two substrates). The settings on record: read-out: IC50 CYP 3A4; Table 4b; midazolam used as substrate.
Series [5] is described as follows: Metabolic stability in human liver microsomes, Method B8. The settings on record: human liver microsomes 0.8 mg/mL, 5 μM compound, 37° C.
Series [6] is described as follows: Pharmacokinetic analysis (intravenous and oral), Method B9. To be noted: Table 10b; for Cl / t1/2: 2 mg/mL intravenous typically employed; for % F: 2 mg/mL intravenous and 8 mg/mL oral typically employed.
The target of series [7] is CYP2D6 (Homo sapiens, UniProt P10635). Description: Cytochrome P450 inhibition, Method B6. The settings on record: read-out: IC50 CYP 2D6; Table 4b; dextromethorphan used as substrate.
Series [8] is described as follows: Plasma protein binding (equilibrium dialysis), Method B5. To be noted: 60 min at 37° C., typically 10 μM. On the technique in general: Equilibrium dialysis compares concentrations on both sides of a semipermeable membrane.

Structures are written as SMILES.

Turning to `CCC(C)[C@@H]1NCCOc2cccc3c2CC(CC3)CNC(=O)[C@@H](Cc2ccc(O)cc2)NC(=O)[C@H](C(C)O)N(C)C1=O` (single isomer, unassigned) [1790a], the IC50 in series [1] was in the range of 0.001 to 0.01 µM; in series [2] it was 0.1 to 0.5 µM. Further, the “Antagonist Activity” value in series [3] was “C (C = 10-100 nM)”.
As for `CC(O)[C@H]1C(=O)N[C@H](Cc2ccc(F)cc2)C(=O)NCC#Cc2ccc(F)cc2OCCN[C@@H](C2(C)CC2)C(=O)N1C` (some centres unmarked), the results for the IC50 in series [1], in series [2] and in series [4] were 0.001 to 0.01 µM, 0.01 to 0.05 µM and 11.5 µM, respectively.
Consider `CC(C)[C@@H]1NCCOc2ccccc2C#C[C@@H](C)NC(=O)[C@@H]([C@H](C)c2ccccc2)NC(=O)[C@H](C(C)O)N(C)C1=O` (some centres unmarked), for which the IC50 in series [1] was 0.001 to 0.01 µM; in series [2], 0.01 to 0.05 µM. The “HLM, metabolic stability in human liver microsomes” value (“HLM, metabolic stability” for short) in series [5] is reported as 40.4 μL/min/mg protein.
Turning to `CC(C)[C@@H]1NCCOc2ccccc2C2CCC(C2)NC(=O)[C@@H](Cc2ccc(F)cc2)NC(=O)[C@H](C(C)O)N(C)C1=O` (single isomer, unassigned) [1903a], the IC50 in series [1] lay within 0.01 to 0.1 µM; in series [2], 0.01 to 0.05 µM. Also, in series [6], the “Cl” value is 1.02 ± 0.54 L/h/kg. In series [6], the “t1/2” value was found to be 0.517 ± 0.217 h.
As to `CCC(C)[C@@H]1NCCOc2cccc3c2CC(CC3)CNC(=O)[C@@H](Cc2c[nH]c3ccccc23)NC(=O)[C@H](C(C)O)N(C)C1=O` (some centres unmarked), the IC50 in series [1] is 0.001 to 0.01 µM. In addition, in series [2], the half-maximal inhibitory concentration (IC50) lay within 0.1 to 0.5 µM. In addition, in series [6], the “% F” value was 81 ± 55%, the “Cl” value was found to be 1.56 ± 0.48 L/h/kg and the “t1/2” value came to 0.867 ± 0.017 h. In addition, the “Antagonist Activity” value in series [3] is on record as “B (B = 1-10 nM)”.
On to `CC(C)[C@@H]1NCCOc2cccc(F)c2C#CCNC(=O)[C@@H](Cc2c[nH]c3ccccc23)NC(=O)[C@H](C(C)O)N(C)C1=O` (some centres unmarked), for which the IC50 in series [1] lay in the range of 0.001 to 0.01 µM. Moreover, the IC50 in series [2] lay in the range of 0.1 to 0.5 µM. Further, in series [6], the “% F” value is recorded as 36 ± 29%, the “Cl” value was 1.08 ± 0.96 L/h/kg and the “t1/2” value is 1.23 ± 0.45 h. For the same compound, in series [3], the “Antagonist Activity” value was “C (C = 10-100 nM)”.
Turning to `CC[C@@H]1CCc2ccc(F)cc2OCCN[C@@H](C(C)C)C(=O)N(C)[C@@H](C(C)O)C(=O)N[C@H]([C@@H](C)c2c[nH]c3ccccc23)C(=O)N1` (some centres unmarked), the IC50 in series [1] was in the range of 0.01 to 0.1 µM; in series [2] it was 0.1 to 0.5 µM. Besides, the “HLM, metabolic stability” value in series [5] is on record as 14.3 μL/min/mg protein. Also, in series [3], the “Antagonist Activity” value is on record as “C (C = 10-100 nM)”.
As for `CCC1CCc2cc(F)ccc2OCCN[C@@H](C(C)C)C(=O)N(C)[C@@H](C(C)O)C(=O)N[C@H](Cc2c[nH]c3ccccc23)C(=O)N1` (some centres unmarked), the IC50 is 0.01 to 0.1 µM in series [1] and 0.05 to 0.1 µM in series [2]. Moreover, the “Antagonist Activity” value in series [3] was “B (B = 1-10 nM)”.
Regarding `CC[C@@H]1CCc2ccc(F)cc2OCCN[C@@H](C2(C)CC2)C(=O)N(C)[C@@H](C(C)O)C(=O)N[C@H]([C@H](C)c2ccccc2)C(=O)N1` (some centres unmarked), the IC50 in series [1] fell in the range of 0.001 to 0.01 µM; in series [2] it was 0.1 to 0.5 µM. Further, the “HLM, metabolic stability” value in series [5] amounted to 15.6 μL/min/mg protein. Moreover, the “Antagonist Activity” value in series [3] is listed as “B (B = 1-10 nM)”.
For the compound `CC(C)[C@@H]1NCCOc2ccccc2C#C[C@@H](C)NC(=O)[C@@H](Cc2cccc(F)c2)NC(=O)[C@H](C(C)O)N(C)C1=O` (some centres unmarked), in series [5], the “HLM, metabolic stability” value turned out to be 13.6 μL/min/mg protein. Besides, the IC50 in series [7] is > 20 µM; in series [4], 1.4 µM. Besides, the “Antagonist Activity” value in series [3] was “B (B = 1-10 nM)”.
With `CC(C)[C@@H]1NCCOc2ccccc2C[C@H](O)[C@@H](C)NC(=O)[C@@H](Cc2c[nH]c3ccccc23)NC(=O)[C@H](C(C)O)N(C)C1=O` (some centres unmarked), the IC50 in series [7] was found to be 12.7 µM; in series [4], 1.4 µM. Further, in series [3], the “Antagonist Activity” value was “B (B = 1-10 nM)”.
`CC(C)[C@@H]1NCCOc2ccccc2C#C[C@@H](C)NC(=O)[C@@H](Cc2c[nH]c3ccccc23)NC(=O)[C@H](C(C)O)N(C)C1=O` (some centres unmarked): in series [5], the “HLM, metabolic stability” value was found to be 23.6 μL/min/mg protein. The results for the IC50 in series [7] and in series [4] were > 20 µM and 1.5 µM, respectively.
Compound `CC(O)[C@H]1C(=O)N[C@H](Cc2ccccc2)C(=O)NCC2CCc3cccc(c3C2)OCCN[C@@H](C(C)(C)C)C(=O)N1C` (some centres unmarked) came in with an IC50 in series [1] of 0.001 to 0.01 µM. Also, the IC50 in series [2] lay within 0.05 to 0.1 µM. Also, in series [6], the “Cl” value was 0.48 ± 0.24 L/h/kg and the “t1/2” value amounted to 1.75 ± 0.333 h. In addition, the “Antagonist Activity” value in series [3] is given as “B (B = 1-10 nM)”.
For `CC(C)[C@@H]1NCCOc2ccccc2C2CCC(C2)NC(=O)[C@@H](Cc2ccc(Cl)cc2)NC(=O)[C@H](C(C)O)N(C)C1=O` (some centres unmarked), the IC50 in series [1] fell in the range of 0.001 to 0.01 µM. Moreover, the IC50 in series [2] lay in the range of 0.01 to 0.05 µM. Also, in series [6], the “Cl” value is 2.04 ± 0.24 L/h/kg and the “t1/2” value came out at 1.08 ± 0.417 h.
For the compound `CC(O)[C@H]1C(=O)N[C@H](Cc2c[nH]c3ccccc23)C(=O)NC/C=C/c2c(F)cccc2OCCN[C@@H](C2(C)CC2)C(=O)N1C` (some centres unmarked), the IC50 in series [1] is 0.01 to 0.1 µM. Also, in series [2], the IC50 was 0.1 to 0.5 µM. Besides, in series [6], the “% F” value came to 2 ± 1%, the “Cl” value is 1.44 ± 0.66 L/h/kg and the “t1/2” value came to 1.17 ± 0.13 h. The “Antagonist Activity” value in series [3] is recorded as “B (B = 1-10 nM)”.
In the case of `CC(O)[C@H]1C(=O)N[C@H](Cc2ccccc2)C(=O)N[C@H](C)CCc2ccccc2OCCN[C@@H](C2(C)CC2)C(=O)N1C` (some centres unmarked), the “HLM, metabolic stability” value in series [5] is on record as 54.5 μL/min/mg protein. In addition, the IC50 in series [7] was > 8 µM; in series [4], 1.1 µM. For the same compound, the “Antagonist Activity” value in series [3] is recorded as “B (B = 1-10 nM)”.
`CCC(C)[C@@H]1NCCOC2CCCCC2CCCNC(=O)[C@@H](Cc2ccccc2)NC(=O)[C@H](C(C)O)N(C)C1=O` (some centres unmarked) yielded a Ki in series [1] of 0.001 to 0.01 µM. In addition, the IC50 in series [7] is > 5 µM; in series [4], 2.6 µM. In series [3], the “Antagonist Activity” value is “C (C = 10-100 nM)”.
With `CC(C)[C@@H]1NCCOc2ccccc2C#C[C@@H](C)NC(=O)[C@@H](Cc2ccc(Cl)cc2)NC(=O)[C@H](C(C)O)N(C)C1=O` (some centres unmarked), the “Binding (%), Human Plasma Protein Binding” value in series [8] stood at 99.1%. Also, the IC50 in series [1] lay within 0.001 to 0.01 µM; in series [2], 0.05 to 0.1 µM. Moreover, the “HLM, metabolic stability” value in series [5] is 32.8 μL/min/mg protein.
On to `CC(C)[C@@H]1NCCOc2cccc(F)c2/C=C/CNC(=O)[C@@H](Cc2cccc(F)c2)NC(=O)[C@H](C(C)O)N(C)C1=O` (some centres unmarked), for which the IC50 stood at 6.3 µM in series [7] and 1.4 µM in series [4]. Further, in series [3], the “Antagonist Activity” value is “B (B = 1-10 nM)”.
For the compound `CC(C)[C@@H]1NCCO[C@H]2CCCC[C@H]2CCCNC(=O)[C@@H](Cc2cccc(F)c2)NC(=O)[C@H](C(C)O)N(C)C1=O` (some centres unmarked), in series [5], the “HLM, metabolic stability” value came out at 69.3 μL/min/mg protein. Also, the results for the IC50 in series [7] and in series [4] were > 20 µM and 0.6 µM, respectively. Further, the “Antagonist Activity” value in series [3] was “C (C = 10-100 nM)”.
